Columns and labels:
Set-up in all cases: Promega pNLF1-C (Nluc) #CXCR20TN00; host or cells: HEK293T, transient transfection (PEI)
[1] = target: T1, CXCR2 (Homo sapiens, UniProt P25025); assay: Membrane-based NanoBRET competition kinetic assay with 9a; details: kinetic competitive binding with 9a (50 nM), CXCR2_Nluc membranes; read-out: residence time tr
Procedure: The obtained data were analyzed using the kinetics of the competitive binding algorithm in PRISM9.5 (GraphPad) to determine competition binding kinetics.

Sequences of proteins named here, by UniProt entry; tags and fusion partners are left off.
UniProt P25025, whole entry: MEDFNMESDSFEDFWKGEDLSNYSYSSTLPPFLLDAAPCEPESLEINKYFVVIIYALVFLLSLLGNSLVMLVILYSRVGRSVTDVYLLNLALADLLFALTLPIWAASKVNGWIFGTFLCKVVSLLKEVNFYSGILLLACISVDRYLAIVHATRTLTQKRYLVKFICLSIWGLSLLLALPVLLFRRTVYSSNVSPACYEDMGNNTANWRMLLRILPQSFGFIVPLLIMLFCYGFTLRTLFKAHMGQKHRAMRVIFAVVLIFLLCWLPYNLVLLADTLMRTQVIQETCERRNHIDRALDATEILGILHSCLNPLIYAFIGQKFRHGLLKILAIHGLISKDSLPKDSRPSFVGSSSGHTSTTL

[2] = target: T1, CXCR2; assay: Membrane-based NanoBRET competition assay with 9a; assay type: binding; details: competition with 9a (50 nM), CXCR2_Nluc membranes
[3] = target: T1, CXCR2; assay: Live cell NanoBRET competition binding with 9a; details: competition with 9a (50 nM), live HEK293T cells expressing CXCR2_Nluc

`O=C(Nc1ccc([N+](=O)[O-])cc1O)Nc1ccccc1Br` [compound 4] showed a residence time [1] of 2.7 ± 0.6 min, a Ki ([2]; read-out: Ki) of 38.6 nM and a Ki ([2]; read-out: pKi (converted)) of 38 nM. For the same molecule, the Ki ([3]; read-out: Ki) was 2.16 nM and the Ki ([3]; read-out: pKi (converted)) was 2.09 nM.
